Assay results taken from article PMC11514443 (Structure (London, England : 1993), 2019).

Amino acid sequences for entries named in this document (tags omitted). Residues count along the entry.
UniProt Q14149, 401-455 E431A: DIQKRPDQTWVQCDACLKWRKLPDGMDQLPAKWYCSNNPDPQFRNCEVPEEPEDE

Molecular target: MORC3-CW E431A mutant (Homo sapiens, UniProt Q14149, E431A)
Conditions: MORC3-CW E431A compared with WT MORC3-CW

CSCC[C@H](N)C(=O)N[C@@H](C)C(=O)N[C@@H](CCCNC(=N)N)C(=O)N[C@H](C(=O)N[C@@H](C)C(=O)N[C@@H](CCCNC(=N)N)C(=O)N[C@@H](CO)C(=O)N[C@@H](CCCC[N+](C)(C)C)C(=O)N[C@H](C(=O)O)C(C)C)[C@@H](C)O [NS1K229me3] (H-MARTARS[Lys(Me3)]V-OH; N-terminus and C-terminus assumed)
effect of E431A mutation on binding: substantially decreased

Square brackets hold non-standard residues; d marks the D form. Peptide text beside a SMILES is read from it. Lys(Me3) = C[N+](C)(C)CCCC[C@H](N)C(=O)O
